Key:
Staphylococcus aureus [1] = details: 4862/C, time 24.0 hrs
Staphylococcus aureus [2] = details: 4880/C, time 24.0 hrs
Staphylococcus aureus [3] = details: 5017/C, time 24.0 hrs

Measured: MIC

GENTAMICIN
0.5 µg/mL: all assays above

— ChEMBL document CHEMBL5120927, “LEGO-Lipophosphonoxins: A Novel Approach in Designing Membrane Targeting Antimicrobials” (J Med Chem, 2022)
